Test results published in publication PMC7154053, “Chemical, Metabolic, and Cellular Characterization of a FtsZ Inhibitor Effective Against Burkholderia cenocepacia” (Frontiers in Microbiology, 2020).

Chains of the proteins cited; added tags and fusions are not shown.
UniProt B4E5Y7, entry or part of it: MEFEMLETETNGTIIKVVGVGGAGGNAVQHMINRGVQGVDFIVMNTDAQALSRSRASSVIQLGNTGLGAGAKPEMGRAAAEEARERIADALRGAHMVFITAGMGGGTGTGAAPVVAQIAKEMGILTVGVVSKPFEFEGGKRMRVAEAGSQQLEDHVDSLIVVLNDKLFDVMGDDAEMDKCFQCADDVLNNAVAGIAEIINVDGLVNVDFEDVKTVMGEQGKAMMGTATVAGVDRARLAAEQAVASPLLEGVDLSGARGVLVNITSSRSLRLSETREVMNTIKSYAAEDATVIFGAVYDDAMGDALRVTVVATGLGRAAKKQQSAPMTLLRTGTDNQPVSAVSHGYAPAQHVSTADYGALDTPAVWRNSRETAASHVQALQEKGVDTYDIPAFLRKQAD

Experiments:
[1] = biological target: Burkholderia cenocepacia purified FtsZ protein (Burkholderia cenocepacia, UniProt B4E5Y7); assay: biochemical
Experimental: All the recombinant FtsZ proteins were expressed at 20°C overnight in E. coli BL21(DE3) cells, upon induction with 0.5 mM IPTG, and purified using the same protocol assessed for the wild-type B. cenocepacia FtsZ (Hogan et al., [2018]).
GTPase enzyme activity was determined using a pyruvate kinase/L-lactic dehydrogenase (PK/LDH) spectrophotometric coupled assay (Ingerman and Nunnari, [2005]). The assays were performed at 30°C, in a reaction mixture containing […] Hepes pH 7.5, 5 mM MgCl2, 5 mM KCl, 10 U PK/LDH, 0.25 mM NADH, 0.25 mM PEP, and 5–10 μM FtsZ, and initiated by the addition of 0.5 mM GTP. Alternatively, GTPase activity was determined by measuring the release of phosphate using the malachite green assay (Baykov et al., [1988]).
(1) A[I]=A[0]×(1-[I]/[I]+IC50)
where A[I] is the enzyme activity at inhibitor concentration [I] and A[0] is the enzyme activity without inhibitor.

[2] = biological target: T1, B. cenocepacia nitroreductase BCAL0539 (BcNR) (Burkholderia cenocepacia, UniProt B4E8I2); assay: BcNR nitroreductase steady-state kinetics (NADPH decrease at 340 nm); assay type: biochemical; settings: C109 vs 4-nitrobenzoic acid
T1 sequence (B4E8I2 1-242): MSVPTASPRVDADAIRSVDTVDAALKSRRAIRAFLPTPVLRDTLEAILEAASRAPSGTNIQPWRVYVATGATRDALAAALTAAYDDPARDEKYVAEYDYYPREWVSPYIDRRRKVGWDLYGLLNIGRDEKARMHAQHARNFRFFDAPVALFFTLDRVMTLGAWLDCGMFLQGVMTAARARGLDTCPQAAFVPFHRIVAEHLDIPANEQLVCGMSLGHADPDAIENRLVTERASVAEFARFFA
Experimental: Enzyme activity assay was determined at 37°C using 4-nitrobenzoic acid or C109 as a substrate and NADPH as cofactor, by measuring the decrease in absorbance at 340 nm of NADPH (ε = 6,220 M^−1 cm^−1). The reaction mixture typically contained 50 mM potassium phosphate pH 8.0, 50 mM KCl, 5–10 μM BcNR, and reactions were started by adding the substrate. Steady-state kinetics parameters were determined by assaying the enzyme at variable concentrations of substrate (10–500 μM). The experiments were performed in triplicate, and the kinetic constants Km and kcat determined by fitting the data to the Michaelis-Menten equation using Origin 8 software.

Question: Which IC50 [1] does the source give for COC(=O)CSc1ccc2nsnc2c1[N+](=O)[O-] [C109, methyl [(4-nitro-2,1,3-benzothiadiazol-5-yl)thio]acetate] here?
Answer: Its IC50 is 8 µM.

Question: And the “Km, fold lower than for 4-nitrobenzoic acid” value [2]?
Answer: Its value is “about 2 fold”.

Question: And the “Vmax, fold higher than for 4-nitrobenzoic acid” value [2]?
Answer: The value was 10 fold.

Question: And the “specificity constant, fold higher than for 4-nitrobenzoic acid” value [2]?
Answer: Its value is “about 20 fold”.
